# Test results: patent US20250041255A1, “COMPOSITIONS AND METHODS FOR TREATING AUTOIMMUNE SKIN DISEASES” (published 2025)
# The chains behind the UniProt entries cited, without tags or fusion partners.
# UniProt Q16665, whole entry, looked up: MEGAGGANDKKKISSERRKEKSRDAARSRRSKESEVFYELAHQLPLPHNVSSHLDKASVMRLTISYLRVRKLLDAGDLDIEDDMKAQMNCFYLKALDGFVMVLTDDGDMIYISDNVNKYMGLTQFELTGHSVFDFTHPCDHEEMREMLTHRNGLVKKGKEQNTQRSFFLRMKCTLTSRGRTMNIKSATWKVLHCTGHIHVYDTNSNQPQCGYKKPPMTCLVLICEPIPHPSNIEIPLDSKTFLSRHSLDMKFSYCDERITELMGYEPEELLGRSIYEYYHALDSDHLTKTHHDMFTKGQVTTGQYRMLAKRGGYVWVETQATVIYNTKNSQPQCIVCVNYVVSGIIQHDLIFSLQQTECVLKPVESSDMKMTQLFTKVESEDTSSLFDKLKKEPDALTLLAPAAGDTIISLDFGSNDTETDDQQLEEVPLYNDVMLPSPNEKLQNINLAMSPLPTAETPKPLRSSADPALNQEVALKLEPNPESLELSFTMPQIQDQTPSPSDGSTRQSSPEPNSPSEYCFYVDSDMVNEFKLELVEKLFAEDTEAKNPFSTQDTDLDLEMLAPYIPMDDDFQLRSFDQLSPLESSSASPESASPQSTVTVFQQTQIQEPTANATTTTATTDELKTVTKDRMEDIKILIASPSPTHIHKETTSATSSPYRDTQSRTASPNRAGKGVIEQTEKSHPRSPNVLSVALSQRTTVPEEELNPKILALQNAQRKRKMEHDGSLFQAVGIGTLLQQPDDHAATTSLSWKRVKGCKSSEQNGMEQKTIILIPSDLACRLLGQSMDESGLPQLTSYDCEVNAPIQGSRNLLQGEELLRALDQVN
# Columns and labels:
# HIF-1α protein = HIF-1α protein (Homo sapiens, UniProt Q16665); conditions: cited from earlier work
# HIF-1β = conditions: cited from earlier work
# [1] = tested on: CD4+ and CD8+ skin-infiltrating and splenic T cells; test: Single-cell RNA sequencing of skin and spleen cells of MRL/lpr mice after 5-day course of high dose PX-478; conditions: for Th17 enrichment score: FIG. 4E
# [2] = tested on: MRL/lpr mice (murine CLE); test: Pharmacologic HIF-1 blockade, 4-week treatment of MRL/lpr mice: skin assessment, histopathologic scoring, Gzmb RNA in situ hybridization
# [3] = CD4+ and CD8+ skin-infiltrating T cells, 30 mg/kg daily for 5 days vs PBS, FIG. 4B
smiles,measurement,setting,value
NC(Cc1ccc([N+]([O-])(CCCl)CCCl)cc1)C(=O)O (stereo not drawn),hypoxia-induced increase in HIF-1α protein,HIF-1α protein,significantly decreases
same,effect on HIF-1β,HIF-1β,little or no effect
same,transcripts of Hif1a,[1]; [3],decreased
same,transcripts of Mxi1,[1]; [3],decreased
same,Hif1α Enrichment Score (GSEA),"[1]; CD4+ and CD8+ skin-infiltrating T cells, FIG. 4C",reduced
same,"Gzmb, Gzmk, and Fasl transcripts (cytotoxic potential)","[1]; CD8+ skin-infiltrating T cells, FIG. 4B",decreased
same,Th17 enrichment score,[1]; skin-infiltrating CD4+ T cells,decrease
same,cytotoxicity enrichment score,"[1]; skin-infiltrating CD8+ T cells, FIG. 4D",reduced
same,expression of exhaustion markers Pdcd1 and Tigit,"[1]; skin-infiltrating CD8+ T cells, FIG. 7F",reduced
same,transcripts of Hif1a and Mxi1,"[1]; splenic T cells, 30 mg/kg daily for 5 days vs PBS, FIG. 4B",but not splenic T cells
same,cytotoxic potential,"[1]; splenic T cells, FIG. 4B",but not splenic T cells
same,Th17 enrichment score,[1]; splenic T cells,not seen
same,histopathologic disease score of the interscapular skin,"[2]; 20-week-old MRL/lpr mice after 4 weeks of treatment, vs vehicle, FIG. 3B",reduced
same,clinical skin disease (dermatitis score),"[2]; 20-week-old MRL/lpr mice after 4 weeks oral gavage 5 mg/kg every 2 days, vs PBS vehicle, FIG. 3A",significantly reduced
same,proportion of cells expressing granzyme B in affected skin,"[2]; RNA in situ hybridization, percent Gzmb+ cells per high power field, 20-week-old MRL/lpr mice after 4 weeks of treatment, FIG. 3D",decreased
